The nature of the data set: In vitro stability of glutamine by incubation in 0.2 M phosphate buffer at pH 9.0. The note with it: pH 9.0, 37° C. Format: physicochemical.

Take “Glutamic Acid/Glutamine Co-Polymer [Poly Glu/Gln]”: the “Time for which glutamine was found to be stable” value is “over 12 hours”.

Source of the values: US7018654B2, “Pharmaceutical composition containing an active agent in an amino acid copolymer structure” (New River Pharmaceuticals Inc., priority 1999, dated 2006).
